A selection: hits, their analogues and other compounds. The true share with any hit is near 3.7%.
Nrf2 activator = activators of Nrf2 (ARE) signaling; Potency, µM (titrated, usually from 46.1 µM), inactives show top-dose activation, most hits filed as activators; AREc32 ARE-luciferase reporter (MCF7-derived line), luminescence, 24 h; 0.31% of 410,000 active; AID 624171; note: potency is the fitted concentration of half-maximal effect; % of control where 0% means no effect; nearly all actives have a fitted effect of over 65% in size
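ARE-driven firefly luciferase activity in AREc32 cells measured after a 24 hr compound exposure at 37 deg C, using Steady-Glo reagent and a 30 min room-temperature hold.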
A549 tox = kills or reduces viability of A549 cells in Nrf2 counter-screen; A549 ARE-Fluc cells, CellTiter-Fluor viability, 18-24 h; Potency, µM (highest dose often 46 µM), for the others: top-dose activity change, negative = cytotoxicity, actives largely listed as inhibitors; 0.16% of 390,000 active; note: potency is the fitted concentration of half-maximal effect; % is set by controls: 0 for no effect and ±100 for the full control effect
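Cytotoxicity counterscreen: CellTiter-Fluor fluorescence was measured in A549 ARE_Fluc cells after 18-24 h of compound exposure in a concentration series. The subsequent BugLite luminescent read reports ARE-luciferase activity.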
ClpP mod = qHTS Assay for Activators of ClpP; ATP-dependent Clp protease proteolytic subunit (Bacillus subtilis (strain 168)), P80244; purified B. subtilis ClpP, FRET peptide cleavage, 20 min; Potency, µM (doses to about 57.5 µM), without a hit: at the highest dose activity change, negative = active; 1.9% of 340,000 active; active = well fitted falling curve with a large enough effect; inconclusive = small, poorly fitted or top-dose-only effect; inactive = no such curve, though single readings can be large or run the other way; note: potency is the fitted concentration of half-maximal effect; the source files actives as falling curves though it sought activators and does not explain the sign; nearly all actives have a fitted effect of over 65% in size
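Purified B. subtilis ClpP, 10 microg/mL final in Tris/HCl pH8 with KCl, BSA, glycerol and Tween-20, cleaved an Abz/nitrotyrosine-quenched decapeptide. Fluorescence (ex 320, em 430) was read at 0 and 20 min at room temperature. Delta was normalized to 5.8 microM ADEP and DMSO/no-enzyme controls.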
miR-21 FLuc = raises the signal of a miR-21 reporter | AID 2288 | 340,000 tested, under 10 active | Potency, µM (series often up to 38.3 µM), without a hit: at the highest dose reporter change, positive = more light | HeLa miR-21 FLuc reporter, luciferase, 48 h; active = well fitted rising curve with a large enough effect; inconclusive = small, poorly fitted or top-dose-only effect; inactive = no such curve, though single readings can be large or run the other way;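 further: % of control where 0% means no effect; miR-21 action dims this reporter so a rising signal means less miR-21 action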
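HeLa cells stably expressing CMV-driven firefly luciferase with a downstream miR-21 binding sequence, endogenously expressing miR-21, were treated with titrations (up to about 40uM final) for 48 hours at 37 degree Celsius. Luciferase luminescence was read after lysis.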
IL-2 act = IL-2 activation; AID 652025; IL-2 activation reporter assay, cell-based qHTS; stimulated with anti-CD3/CD4/CD28 beads; in transgenic mouse T cells; 0.065% of 360,000 active; activation, % (series mostly up to about 46 µM); in the data active = activation above about 50%; inconclusive = mostly about 30% to 49%; note: 0% is about no effect
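Quantitative HTS in unstimulated transgenic mouse T cells, with memory T cells as non-tolerant control and PMA/ionomycin as tolerance-bypass control. Compound pretreatment lasted 60 minutes before 18 h bead stimulation; EGFP/DsRed fluorescence read.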
Nrf2 inh = inhibitors of Nrf2 signaling | A549 ARE-Fluc reporter, luciferase luminescence, 18-24 h | Potency, µM (titrated, usually from 46 µM), without a hit: at the highest dose activity change, negative = inhibition, hits mostly inhibitors | 2.1% of 360,000 active; note: potency is the fitted concentration of half-maximal effect; % is set by controls: 0 for no effect and ±100 for the full control effect; nearly all actives have a fitted effect of over 60% in size
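A549 ARE_Fluc cells (5000/well, 5% FBS OPTI-MEM) pre-incubated 2 h, then treated with compounds 18-24 h at 37C/5% CO2 in concentration-response. CellTiter-Fluor viability read first; BugLite luciferase luminescence after 15 min at room temperature gives Nrf2 activity.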
ClpP inh valid = validation of B. subtilis ClpP protease hits (inhibitors) | Potency, µM (doses to about 57.5 µM), for inactives: top-dose activity change, negative = inhibition, hits mostly inhibitors | purified B. subtilis ClpP, FRET-FV substrate cleavage, 20 min | 40% of 470 active | shares compounds with ClpP mod; note: potency is the fitted concentration of half-maximal effect; % is set by controls: 0 for no effect and ±100 for the full control effect; nearly all actives have a fitted effect of over 70% in size
Active calls of the source: *; ? = inconclusive; . = no result. Unless noted, calls come from the whole dose curve; as a rule, active = well fitted curve in the direction sought with a large enough effect; inconclusive = small, poorly fitted or top-dose-only effect, or another doubt; inactive = no such curve, though single readings can be large; an effect the other way counts as inactive or inconclusive.

Protein sequences, listed by entry. Tags and fused reporters are not part of them.
ATP-dependent Clp protease proteolytic subunit (Bacillus subtilis (strain 168)), P80244, UniProt P80244, whole entry, looked up: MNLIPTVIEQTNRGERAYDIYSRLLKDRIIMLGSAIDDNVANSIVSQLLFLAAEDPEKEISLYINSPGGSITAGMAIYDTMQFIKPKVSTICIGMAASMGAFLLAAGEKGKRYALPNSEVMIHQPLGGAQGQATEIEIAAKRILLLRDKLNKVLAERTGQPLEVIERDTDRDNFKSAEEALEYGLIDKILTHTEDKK

| no. | structure | Nrf2 activator | A549 tox | ClpP mod | miR-21 FLuc |
| --- | --- | --- | --- | --- | --- |
| 1 | O=C(Nc1ccccc1)c1cc2c(-c3ccccc3)nn(-c3ccccc3)c2s1 | -1% | -1% | 7.1µM* | -1% |
| 2 | CN(c1ccccc1C(=O)NC1CCCCC1)S(=O)(=O)c1ccccc1 | 0% | 2% | 3% | 3% |
| 3 | CN(c1ccccc1C(=O)NC1CC2CCC1C2)S(=O)(=O)c1ccccc1 (stereo unspecified) | 0% | 2% | 7.9µM* | 3% |
| 4 | COC(=O)c1cc(Cl)c(NC(=O)c2cc3ccccc3o2)cc1OC | 4% | -8% | 37% | -9% |
| 5 | Cc1cc2nc(-c3cc(NC(=O)c4cc5ccccc5o4)ccc3Cl)oc2cc1C | 5% | 2% | 3.2µM* | -19% |
| 6 | O=C(Nc1ccc(Cl)c(-c2nc3cc(Cl)ccc3o2)c1)c1cc2ccccc2o1 | ? | -2% | ? | -27% |
| 7 | CCCCOc1ccc(C(=O)NCCc2sc(-c3cccc(F)c3)nc2C)cc1 | -1% | -8% | 4% | 9% |
| 8 | O=C(CCCOc1ccccc1)Nc1ccc(Br)cc1 | 3% | -8% | 1% | . |
| 9 | O=C(CCOc1ccccc1)Nc1ccc(Br)cc1 | 6% | 0% | 7.9µM* | -53% |
| 10 | Cc1ccc2[nH]c(=O)c(CN(Cc3ccc4c(c3)OCO4)Cc3nnnn3C3CCCC3)cc2c1 | 20% | -9% | 81% | 1% |

| no. | IL-2 act | Nrf2 inh | ClpP inh valid |
| --- | --- | --- | --- |
| 1 | . | ? | 19µM* |
| 2 | -1 | -6% | . |
| 3 | 0 | -6% | -3% |
| 4 | 0 | ? | -26% |
| 5 | . | ? | 19µM* |
| 6 | . | 12% | . |
| 7 | . | . | . |
| 8 | 2 | -5% | . |
| 9 | -1 | ? | 0% |
| 10 | 1 | -13% | -19% |

The list continues.
| no. | structure | Nrf2 activator | A549 tox | ClpP mod | miR-21 FLuc |
| --- | --- | --- | --- | --- | --- |
| 11 | Cc1sc2c(c1C)c(=O)n(-c1cccc(C(F)(F)F)c1)c(=O)n2Cc1ccccc1C#N | 0% | -19% | 1% | -6% |
| 12 | COc1ccccc1CNC(=O)c1cnc2sc(N3CCOCC3)nn2c1=O | 5% | 0% | ? | -5% |
| 13 | Cc1cc(C)cc(C(=O)N(Cc2ccco2)c2c(N)n(Cc3ccccc3)c(=O)[nH]c2=O)c1 | 0% | -6% | 10µM* | . |
| 14 | COc1ccc(S(=O)(=O)N2CCN(CC(=O)Nc3cc(OC)cc(OC)c3)CC2)cc1 | 4% | -4% | 66% | 2% |
| 15 | COc1cc(NC(=O)CN2CCN(S(=O)(=O)c3ccc(C(C)C)cc3)CC2)cc(OC)c1 | 1% | -3% | -2% | 11% |

| no. | IL-2 act | Nrf2 inh | ClpP inh valid |
| --- | --- | --- | --- |
| 11 | . | 19% | . |
| 12 | . | ? | . |
| 13 | -1 | -11% | -1% |
| 14 | -2 | -20% | 1% |
| 15 | 0 | -26% | . |

An excerpt from above in order of formula weight, falling:
| no. | structure | Nrf2 activator | A549 tox | ClpP mod | miR-21 FLuc |
| --- | --- | --- | --- | --- | --- |
| 15 | COc1cc(NC(=O)CN2CCN(S(=O)(=O)c3ccc(C(C)C)cc3)CC2)cc(OC)c1 | 1% | -3% | -2% | 11% |
| 7 | CCCCOc1ccc(C(=O)NCCc2sc(-c3cccc(F)c3)nc2C)cc1 | -1% | -8% | 4% | 9% |
| 8 | O=C(CCCOc1ccccc1)Nc1ccc(Br)cc1 | 3% | -8% | 1% | . |

| no. | IL-2 act | Nrf2 inh | ClpP inh valid |
| --- | --- | --- | --- |
| 15 | 0 | -26% | . |
| 7 | . | . | . |
| 8 | 2 | -5% | . |

Bioassay records from PubChem.
